Earlier results, collected in paper PMC8583936, “Machine Learning Assisted Approach for Finding Novel High Activity Agonists of Human Ectopic Olfactory Receptors” (International Journal of Molecular Sciences, 2021).

Molecular target: T1, OR1A1 (Homo sapiens, UniProt Q9P1Q5)
T1 sequence (Q9P1Q5 1-309): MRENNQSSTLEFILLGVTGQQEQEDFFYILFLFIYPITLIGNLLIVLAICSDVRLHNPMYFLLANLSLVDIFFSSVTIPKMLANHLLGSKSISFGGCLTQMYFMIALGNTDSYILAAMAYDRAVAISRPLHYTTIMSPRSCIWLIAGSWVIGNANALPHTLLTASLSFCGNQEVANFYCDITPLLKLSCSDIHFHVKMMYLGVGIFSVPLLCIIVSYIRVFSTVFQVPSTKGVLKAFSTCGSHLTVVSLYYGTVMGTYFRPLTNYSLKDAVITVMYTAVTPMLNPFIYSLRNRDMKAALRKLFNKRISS
Details: cited from earlier work

CC(=O)/C=C/C1C(C)=CCCC1(C)C (stereo not drawn) [Α-ionone]
Class (agonist / non-agonist / conflicting info.) for OR1A1: Non-agonist
